# Measured affinities in a library of Ab-91 heavy chain variants

From the AlphaSeq antibody data of Engelhart et al. 2022 (doi:10.1038/s41597-022-01779-4), copy in the FLAb collection.

Binding partner: SARS-CoV-2 spike HR2 peptide, sequence PDVDLGDISGINAS.

Parent scFv Ab-91: VL joined to VH by a (GGGGS)3 linker. Changes lie in the heavy chain CDRs alone.
VL: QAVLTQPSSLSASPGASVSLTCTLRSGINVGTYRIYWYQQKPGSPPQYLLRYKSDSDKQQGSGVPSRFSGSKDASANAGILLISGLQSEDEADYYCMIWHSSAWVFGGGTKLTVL
VH: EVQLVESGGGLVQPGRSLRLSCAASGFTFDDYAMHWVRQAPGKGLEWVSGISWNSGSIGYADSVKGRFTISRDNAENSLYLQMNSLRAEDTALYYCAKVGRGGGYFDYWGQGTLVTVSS

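The library (AAYL51) carries one to three amino acid substitutions per variant, with no insertions or deletions. The scFvs were displayed on barcoded MATa yeast, the peptide on MATalpha yeast. Binding brings cells together so that they mate, and sequencing counts the barcode pairs among the diploids. A regression on co-assayed BCL2-family reference pairs converts the normalised counts of each replicate to an apparent Kd. There are three technical replicates.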

The parent's heavy chain CDRs are GFTFDDYAMH, GISWNSGSIGYADSVK, VGRGGGYFDY; each variant's own CDRs replace them letter for letter. Values are log10 of the apparent Kd in nM; lower means stronger binding. The mean shown is taken over the replicates in which the pair was detected. "no signal" marks a missing value. The strain was present, yet no cells mated with the target were sequenced in any replicate, which points to weak or no binding.

{"CDR-H1": "GFTFDDYASH", "CDR-H2": "GISWNSGSIGYADSVK", "CDR-H3": "VGRQGGYFDY", "log10 Kd (nM), mean": "4.66", "detected": "2 of 3"}
{"CDR-H1": "GFTFDDYAMH", "CDR-H2": "GISWNGGSIGYADFVK", "CDR-H3": "VGRPGGYFDY", "log10 Kd (nM), mean": "no signal", "detected": "0 of 3"}
{"CDR-H1": "GFTFDDYAMH", "CDR-H2": "GLSWNSGPIVYADSVK", "CDR-H3": "VGRGGGYFDY", "log10 Kd (nM), mean": "4.53", "detected": "3 of 3"}
{"CDR-H1": "GFTFDDYEMH", "CDR-H2": "GISWNSGSKGYADSMK", "CDR-H3": "VGRGGGYFDY", "log10 Kd (nM), mean": "no signal", "detected": "0 of 3"}
{"CDR-H1": "GETFDDYAMH", "CDR-H2": "GISWNSGSISYAGSVK", "CDR-H3": "VGRGGGYFDY", "log10 Kd (nM), mean": "no signal", "detected": "0 of 3"}
{"CDR-H1": "GFTFDDYAMW", "CDR-H2": "GISWNCGSIGYADSVK", "CDR-H3": "VGRGGGYFDY", "log10 Kd (nM), mean": "5.47", "detected": "1 of 3"}
{"CDR-H1": "GWTFDDYAEH", "CDR-H2": "GISDNSGSIGYADSVK", "CDR-H3": "VGRGGGYFDY", "log10 Kd (nM), mean": "no signal", "detected": "0 of 3"}
{"CDR-H1": "GFTFDDYAMQ", "CDR-H2": "GISWNSGSQGYADSVK", "CDR-H3": "VGRGGGYFGY", "log10 Kd (nM), mean": "4.98", "detected": "2 of 3"}
{"CDR-H1": "GFTFDDRAMH", "CDR-H2": "GISWNSGSVGYADSVK", "CDR-H3": "VGRRGGYFDY", "log10 Kd (nM), mean": "no signal", "detected": "0 of 3"}
{"CDR-H1": "GFTFDDYAMH", "CDR-H2": "GISWNSGSIGYADSVK", "CDR-H3": "VWRFGGYFEY", "log10 Kd (nM), mean": "no signal", "detected": "0 of 3"}
{"CDR-H1": "GFTFDDYAMH", "CDR-H2": "GISWNSGSIGTADSVK", "CDR-H3": "IGRGGKYFDY", "log10 Kd (nM), mean": "1.91", "detected": "3 of 3"}
{"CDR-H1": "GFTFDDYAMH", "CDR-H2": "GISWWSGSIGYADSVK", "CDR-H3": "RGRGGMYFDY", "log10 Kd (nM), mean": "4.66", "detected": "3 of 3"}
{"CDR-H1": "GLKFDDYAMH", "CDR-H2": "GIFWNSGSIGYADSVK", "CDR-H3": "VGRGGGYFDY", "log10 Kd (nM), mean": "4.56", "detected": "2 of 3"}
{"CDR-H1": "GFTFDDYAMH", "CDR-H2": "GISWLSKSIGYADSVK", "CDR-H3": "VGRGRGYFDY", "log10 Kd (nM), mean": "3.77", "detected": "1 of 3"}
{"CDR-H1": "GFTFDDYAMH", "CDR-H2": "GDSWNSESIGYIDSVK", "CDR-H3": "VGRGGGYFDY", "log10 Kd (nM), mean": "4.41", "detected": "1 of 3"}
{"CDR-H1": "GFTFDDYAMH", "CDR-H2": "GISWNSGSIGYVDSVK", "CDR-H3": "VGRGGGYTHY", "log10 Kd (nM), mean": "2.04", "detected": "3 of 3"}
{"CDR-H1": "AFTFDDYAMH", "CDR-H2": "GISWNSGSIGYADSVK", "CDR-H3": "KGRGGPYFDY", "log10 Kd (nM), mean": "no signal", "detected": "0 of 3"}
{"CDR-H1": "GFTLDDFAMH", "CDR-H2": "GISWNSGSIVYADSVK", "CDR-H3": "VGRGGGYFDY", "log10 Kd (nM), mean": "5.45", "detected": "2 of 3"}
{"CDR-H1": "GFTFDDGAMH", "CDR-H2": "GISWNSGSIGYADMVK", "CDR-H3": "VGRGGGYFEY", "log10 Kd (nM), mean": "no signal", "detected": "0 of 3"}
{"CDR-H1": "GFNFDDYATH", "CDR-H2": "GISWNSGSIGYADSVK", "CDR-H3": "VGRGGGPFDY", "log10 Kd (nM), mean": "no signal", "detected": "0 of 3"}
{"CDR-H1": "GFTFDDYAMH", "CDR-H2": "GISWNSGSIGYADSVK", "CDR-H3": "VGDGVGYFDK", "log10 Kd (nM), mean": "2.97", "detected": "3 of 3"}
{"CDR-H1": "GFTFDDYAMH", "CDR-H2": "GISWNSGSIGMADSVK", "CDR-H3": "VGGGGGYFQY", "log10 Kd (nM), mean": "5.38", "detected": "3 of 3"}
{"CDR-H1": "GFTFDDYAMH", "CDR-H2": "NISWNSGSIGYADSVK", "CDR-H3": "VGRGGGKFDY", "log10 Kd (nM), mean": "5.19", "detected": "1 of 3"}
{"CDR-H1": "GFTFDDYAMH", "CDR-H2": "GISANSGHIGYADSVK", "CDR-H3": "VGRGGFYFDY", "log10 Kd (nM), mean": "no signal", "detected": "0 of 3"}
{"CDR-H1": "FFTFDCYAMH", "CDR-H2": "GISWNSGSIGYADSVK", "CDR-H3": "VMRGGGYFDY", "log10 Kd (nM), mean": "no signal", "detected": "0 of 3"}
{"CDR-H1": "DFTFDDYAMF", "CDR-H2": "GISWNSCSIGYADSVK", "CDR-H3": "VGRGGGYFDY", "log10 Kd (nM), mean": "no signal", "detected": "0 of 3"}
{"CDR-H1": "GFTFDYYAMH", "CDR-H2": "GISWCSGSIGYADSVQ", "CDR-H3": "VGRGGGYFDY", "log10 Kd (nM), mean": "2.62", "detected": "2 of 3"}
{"CDR-H1": "GFTFDDHAMH", "CDR-H2": "GISWNSDSIGYADSVK", "CDR-H3": "VGRGGGYFDY", "log10 Kd (nM), mean": "1.33", "detected": "3 of 3"}
{"CDR-H1": "CFTFDDYAMH", "CDR-H2": "GISWNSGSIGYADSVK", "CDR-H3": "VGDGGGYFIY", "log10 Kd (nM), mean": "3.94", "detected": "1 of 3"}

Parent in this assay: reference entry 1.86, copy in this library 0.88. Background: pairings of library AAYL51 with three empty control strains gave a value in 21% of cases (median 4.54, 5th percentile 3.26). Values in that range, when seen in few replicates, are hard to tell from nonspecific mating.